From patent EP1611148B1, “NOVEL NITRILE GLYCOSIDE USEFUL AS A BIO-ENHANCER OF DRUGS AND NUTRIENTS, PROCESS OF ITS ISOLATION FROM MORINGA OLEIFERA” (Council of Scientific and Industrial Research, priority 2003, dated 2004)

Assays:
E.coli DH5α = assay: Enhancement of bacterial transformation with pUC18 plasmid DNA, strain DH5α; conditions: niaziridin @1-10µg/ml for 4 hours
E.coli CA8000 = assay: Enhancement of bacterial transformation with pUC18 plasmid DNA, strain CA8000; conditions: niaziridin @1-10µg/ml for 4 hours

niaziridin was tested. Which increase for transformation (E.coli DH5α) did it give?
Its increase for transformation is 2.3 folds.

And the increase for transformation (E.coli CA8000)?
The increase for transformation was 5.5 folds.
